The list shows a part of the results, in another mix than the full data. Calls of active or inactive are those of the source. Cut-off read from the data, not from the text of the source: active = activation above about 22%; inactive = the rest.
Target: Peroxisome proliferator-activated receptor gamma (Homo sapiens) (UniProt P37231)
Assay: agonists of PPARg-SRC-2 recruitment, primary screen, biochemical, HTS (AID 1032);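 note: 0% = vehicle and 100% = reference agonist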
Conditions: PPARgamma LBD-SRC-2 recruitment, at 8 µM, stronger effect = higher value

Protein sequences, listed by entry. Tags and fused reporters are not part of them. Residues count along the entry.
UniProt P37231, 232-505 limits assumed: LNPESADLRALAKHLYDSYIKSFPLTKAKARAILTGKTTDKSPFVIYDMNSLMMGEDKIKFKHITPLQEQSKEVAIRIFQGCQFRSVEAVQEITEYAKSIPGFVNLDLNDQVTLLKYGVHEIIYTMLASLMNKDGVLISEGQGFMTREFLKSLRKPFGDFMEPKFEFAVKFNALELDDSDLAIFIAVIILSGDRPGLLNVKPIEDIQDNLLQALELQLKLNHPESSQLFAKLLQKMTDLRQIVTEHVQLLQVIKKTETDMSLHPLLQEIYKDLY
UniProt Q15596, whole entry partner: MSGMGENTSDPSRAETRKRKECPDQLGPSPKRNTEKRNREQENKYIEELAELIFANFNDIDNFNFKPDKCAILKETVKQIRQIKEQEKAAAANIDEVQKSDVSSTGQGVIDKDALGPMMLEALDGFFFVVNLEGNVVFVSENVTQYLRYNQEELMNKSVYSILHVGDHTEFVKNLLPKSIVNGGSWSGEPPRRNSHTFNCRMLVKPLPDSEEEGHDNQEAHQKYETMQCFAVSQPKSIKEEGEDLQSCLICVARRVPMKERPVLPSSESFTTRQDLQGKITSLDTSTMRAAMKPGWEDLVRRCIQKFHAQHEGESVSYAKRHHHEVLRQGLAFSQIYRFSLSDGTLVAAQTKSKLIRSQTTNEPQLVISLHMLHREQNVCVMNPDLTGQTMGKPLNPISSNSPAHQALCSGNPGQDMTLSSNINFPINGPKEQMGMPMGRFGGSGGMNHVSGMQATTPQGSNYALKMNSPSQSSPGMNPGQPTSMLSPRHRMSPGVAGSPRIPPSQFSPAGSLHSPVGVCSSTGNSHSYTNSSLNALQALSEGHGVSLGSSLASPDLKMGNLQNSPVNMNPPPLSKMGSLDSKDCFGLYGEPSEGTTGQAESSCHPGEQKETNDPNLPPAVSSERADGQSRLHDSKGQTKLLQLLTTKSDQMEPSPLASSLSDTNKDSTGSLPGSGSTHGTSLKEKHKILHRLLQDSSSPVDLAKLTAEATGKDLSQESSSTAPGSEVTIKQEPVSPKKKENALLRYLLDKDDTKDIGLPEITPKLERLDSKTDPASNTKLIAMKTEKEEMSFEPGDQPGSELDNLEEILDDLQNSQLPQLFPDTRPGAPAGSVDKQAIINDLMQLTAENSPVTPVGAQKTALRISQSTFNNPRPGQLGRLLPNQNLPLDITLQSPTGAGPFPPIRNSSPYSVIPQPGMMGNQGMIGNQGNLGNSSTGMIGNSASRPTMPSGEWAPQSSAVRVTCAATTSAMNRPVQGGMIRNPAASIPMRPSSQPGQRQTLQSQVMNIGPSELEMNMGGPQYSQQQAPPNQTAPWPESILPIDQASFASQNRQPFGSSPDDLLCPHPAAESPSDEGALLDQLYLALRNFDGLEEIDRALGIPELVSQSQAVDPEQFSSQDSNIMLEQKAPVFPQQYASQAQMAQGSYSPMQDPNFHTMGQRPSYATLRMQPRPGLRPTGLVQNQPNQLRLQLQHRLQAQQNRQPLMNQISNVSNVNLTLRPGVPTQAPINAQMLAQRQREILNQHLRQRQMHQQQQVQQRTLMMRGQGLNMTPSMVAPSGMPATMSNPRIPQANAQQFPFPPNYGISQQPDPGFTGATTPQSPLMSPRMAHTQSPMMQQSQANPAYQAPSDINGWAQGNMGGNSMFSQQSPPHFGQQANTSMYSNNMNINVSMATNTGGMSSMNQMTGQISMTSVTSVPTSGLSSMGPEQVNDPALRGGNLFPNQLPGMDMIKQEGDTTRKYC

| Compound | activation |
| --- | --- |
| O=C(NCC1(N2CCOCC2)CCCCC1)c1cc(=O)[nH]c2ccccc12 | inactive: -0.69% |
| CN1CCN(CCOC(=O)C(O)(c2ccccc2)c2ccccc2)CC1 | inactive: -7.29% |
| COc1ccc(NC2CCN(C(=O)OC(C)(C)C)CC2)cc1 | inactive: -9.34% |
| N#CC1(Nc2ccccc2)CCN(CCc2ccccc2)CC1 | inactive: -0.37% |
| O=C(NCC1(N2CCCCC2)CCCCC1)c1cccc([N+](=O)[O-])c1 | inactive: -6.76% |
| CN1CCC(Nc2cccc(F)c2)CC1 | inactive: -2.47% |
| CC(C)c1ccc(NC2CCN(C(=O)OC(C)(C)C)CC2)cc1 | inactive: -11.3% |
| COc1ccc(CN(CCCl)CCCl)cc1Cl | inactive: -6.66% |
| CN(C)c1cccc(C(=O)NCC2(N3CCCCC3)CCCCC2)c1 | inactive: -5.05% |
| O=C(OC1CN2CCC1CC2)C1c2ccccc2Oc2ccccc21 (stereo not given) | inactive: 1.57% |
| CCOC(=O)N1CCC(Nc2ccc(OC)cc2)CC1 | inactive: 15.3% |
| O=C(NCC1(N2CCOCC2)CCCCC1)c1cc2ccccc2o1 | inactive: -6.96% |
| COc1ccc(C(=O)NCC2(N3CCCCC3)CCCCC2)c(OC)c1OC | inactive: -3.05% |
| COc1ccc(NC2CCN(CCc3ccccc3)CC2)c(OC)c1 | inactive: 5.92% |
| CN(C)c1ccc(C(=O)NCC2(N3CCCCC3)CCCCC2)cc1 | inactive: 5.09% |
| CCN1CCC(Nc2cccc(F)c2)CC1 | inactive: 11.5% |
| COc1cc(OC)cc(C(=O)NCC2(N3CCOCC3)CCCCC2)c1 | inactive: 3.8% |
| CCC(CO)(C(=O)OC1CN2CCC1CC2)c1ccccc1 (stereo not given) | inactive: -2.61% |
| CC(C)(C)OC(=O)N1CCC(Nc2ccccc2)CC1 | inactive: 3.44% |
| CCOc1ncccc1C(=O)NCC1(N2CCOCC2)CCCCC1 | inactive: -0.96% |
| O=C(OC1CN2CCC1CC2)C1c2ccccc2C=Cc2ccccc21 (stereo not given) | inactive: -1.92% |
| N/C(=N\O)c1c(N)no[n+]1[O-] | inactive: 5.51% |
| COc1ccc(C(=O)NCC2(N3CCOCC3)CCCCC2)cc1OC | inactive: -0.71% |
| c1ccc(CN2CCC(Nc3ccccc3)CC2)cc1 | inactive: 0.44% |
| N#Cc1ccc(C(=O)NCC2(N3CCCCC3)CCCCC2)cc1 | inactive: 0.18% |
